The values that follow come from PubChem BioAssay (NCATS).

Sequences of proteins named here, by UniProt entry; tags and fusion partners are left off.
UniProt P04637, whole entry: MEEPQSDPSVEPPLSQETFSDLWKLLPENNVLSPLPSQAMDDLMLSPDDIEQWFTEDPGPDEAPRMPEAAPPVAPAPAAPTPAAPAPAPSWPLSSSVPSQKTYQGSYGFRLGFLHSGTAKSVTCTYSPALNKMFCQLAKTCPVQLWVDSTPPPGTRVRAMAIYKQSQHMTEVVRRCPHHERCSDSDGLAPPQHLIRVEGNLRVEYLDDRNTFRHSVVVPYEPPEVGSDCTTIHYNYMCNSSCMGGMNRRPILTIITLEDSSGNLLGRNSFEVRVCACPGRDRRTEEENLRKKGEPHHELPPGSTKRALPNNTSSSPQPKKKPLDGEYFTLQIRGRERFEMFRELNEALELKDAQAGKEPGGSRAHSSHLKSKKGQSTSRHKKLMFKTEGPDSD

Assay [1] in a line: BET inhibitor-based combinations targeting novel dependencies in MECOM-rearranged (r) AML: SET-2 cell line (AID 2202231).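 Note: plate controls were DMSO treated cells for no effect and wells without cells for full effect; nearly all actives have a fitted effect of over 35% in size.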 To be noted: SET-2 AML cells viability, CellTiter-Glo luminescence, 48 h; active compounds read low; concentration not given here. The text has this: (§1) Ecotropic viral insertion site 1 (EVI1) is located on chromosome 3q26.2 as part of the MECOM (MDS and EVI1 complex) locus. Under normal hematopoiesis, EVI1 is a regulator of hematopoietic stem cell maintenance and self-renewal and EVI1 levels decrease as the cells differentiate. In approximately 5-10% of de novo acute myeloid leukemia (AML) EVI1 is aberrantly expressed, including Chromosomal inv(3)(q21;q26.2) or t(3;3)(q21;q26.2) alterations (MECOM-r) that account for about 50% of AML with EVI1 overexpression 31. AMLs with high levels of EVI1 have a poor prognosis and an overall survival time averaging between 10-14 months. EVI1 overexpression confers resistance in leukemia cells, highlighting the need to develop new targeted therapies for EVI1 overexpressing AMLs. […]
(§2) A collection of 2480 mechanistically annotated dugs (MIPE v5.0) was used to screen four 3q26.2 rearranged AML cell lines and three non-3q26.2 rearranged AML cell lines. […] Cell viability was determined by luminescence based, Cell Titer Glo assay (Promega). […] Luminescence readings were taken using a Viewlux (PerkinElmer) with a 2 s exposure time per plate. […] Quantitative drug activity data from dose-response curves was determined utilizing area Under the Curve (AUC) and Z-transformed AUC (Z-AUC, a mean-centering transformation applied to each individual cell-line screened).

The nature of assay [2]: BET inhibitor-based combinations targeting novel dependencies in MECOM-rearranged (r) AML: OCI-AML3 cell line (AID 2202232).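 Note: plate controls were DMSO vehicle wells for no effect and wells without cells for full effect; nearly all actives have a fitted effect of over 35% in size.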 To be noted: CellTiter-Glo luminescence, 48 h; at 46 µM (top of the series). An outline of the steps:
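Cells were plated at 500 per well and exposed to an 11-point dose series of each drug for 48 hr. Viability was measured by CellTiter-Glo luminescence, normalized to DMSO and empty-well controls, and summarized as AUC and per-cell-line Z-AUC.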

Assay [3] can be described thus: BET inhibitor-based combinations targeting novel dependencies in MECOM-rearranged (r) AML: MV-4-11 cell line (AID 2202233).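 Note: plate controls were DMSO for no effect and blank wells for full effect; nearly all actives have a fitted effect of over 45% in size.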 To be noted: MV-4-11 AML viability, CellTiter-Glo luminescence, 48 h; at 46 µM (top of the series). The method, boiled down:
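Activity is given as area under the curve and as Z-AUC, mean-centred within each cell line. It comes from 11-point dose curves normalized to DMSO and empty wells. CellTiter-Glo luminescence was read after 48 hr drug exposure of 500 cells/well.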
On the technique in general: ATP-based viability assays read luminescence as a measure of living cells.

A short description of assay [4]: BET inhibitor-based combinations targeting novel dependencies in MECOM-rearranged (r) AML: AML-191 cell line (AID 2202236;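 note: plate controls were vehicle wells for no effect and wells without cells for full effect; nearly all actives have a fitted effect of over 35% in size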). To be noted: AML-191 viability, CellTiter-Glo luminescence, 48 h; at 46 µM (top of the series).
Source text: as §1, §2

Assay [5] addresses Cellular tumor antigen p53 (Homo sapiens) (UniProt P04637). Nature of the assay: Primary qHTS for small molecule compounds that upregulate eGFP-tagged delta133p53alpha (in N-terminal) cells. (AID 2060322).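 Note: cells pre-induced with doxycycline then dosed without doxycycline; 0% = DMSO vehicle and 100% = reference activator; nearly all actives have a fitted effect of over 75% in size.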 To be noted: NCI-H358 eGFP-delta133p53alpha fluorescence, 24 h; active compounds read high. (In qHTS, concentration-response curves come from the screen itself.)
The target of assay [6] is Aldehyde dehydrogenase, mitochondrial (Homo sapiens) (UniProt P05091). Nature of the assay: qHTS for Inhibitors of the Aldehyde Dehydrogenase Family (ALDH2) Primary screen (AID 2061308).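 Note: plate controls were vehicle for no effect and reference inhibitor for full effect; nearly all actives have a fitted effect of over 55% in size.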 To be noted: ALDH2 enzyme inhibition qHTS, 1536-well; at 56 µM (top of the series) unless noted.
The target in assay [7] is Retinaldehyde dehydrogenase 3 (Homo sapiens) (UniProt P47895). Nature of the assay: qHTS for Inhibitors of the Aldehyde Dehydrogenase Family (ALDH1A3) Primary screen (AID 2061315).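 Note: plate controls were DMSO vehicle for no effect and reference inhibitor for full effect.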 To be noted: S. pombe CHP2027 cells, fluorescence laser cytometry, 18 h; at 56 µM (top of the series) unless noted.

This is a selection; strong and weak results do not stand in their true shares. Inconclusive results are not listed. Some salts or complexes appear as unconnected parts, following the source record. Active and inactive are the calls of the source. Calls come from the whole dose curve; as a rule, active = well fitted curve in the direction sought with a large enough effect; inconclusive = small, poorly fitted or top-dose-only effect, or another doubt; inactive = no such curve, though single readings can be large; an effect the other way counts as inactive or inconclusive.

By viability is commonly meant a per cent measure of how many cells are alive, often set against a control. As to `C/C1=C2/N=C(C(CC(N)=O)C2(C)CCC(=O)NCC(C)OP(=O)([O-])OC2C(CO)OC(n3cnc4cc(C)c(C)cc43)C2O)C2(C)N=C(/C(C)=C3N=C(/C=C4N=C1C(CCC(N)=O)C\4(C)C)C(CCC(N)=O)C/3(C)CC(N)=O)C(CCC(N)=O)C2(C)CC(N)=O.[C-]#N.[Co]` (stereo unspecified), the viability in assay [1] was inactive: 94.2%. In addition, the viability (% of control) is inactive: 95% in assay [2] and inactive: 82.6% in assay [4]. For the same molecule, the viability, % of control in assay [3] is inactive: 91.2%.
Consider `O=[N+]([O-])c1cccc([N+](=O)[O-])c1`, for which, in assay [5], the activation was inactive: -13%.
As for `C/C1=C2N=C(/C=C3N=C(/C(C)=C4\N=C(C(CC(N)=O)C4(C)CCC(=O)NCC(C)OP(=O)([O-])OC4C(CO)OC(n5cnc6cc(C)c(C)cc65)C4O)C4(C)N=C1C(CCC(N)=O)C4(C)CC(N)=O)C(CCC(N)=O)C\3(C)C)C(CCC(N)=O)C/2(C)CC(N)=O.[C-]#N.[Co]` (stereo unspecified), the activation in assay [5] was inactive: 5.25%. In addition, the results for the activity change, negative = inhibition in assay [6] and in assay [7] were inactive: -11.4% [at 28 µM] and inactive: -12.2% [at 28 µM], respectively.
As for `CCOP(=O)(CC)Oc1ccc([N+](=O)[O-])cc1` (stereo unspecified), the activity change, negative = inhibition in assay [6] is inactive: 11.2%; in assay [7] it was inactive: -7.77%.
`OCCSCCO`: in assay [5], the activation was inactive: -10.7%.
